The values that follow come from PubChem BioAssay AID588354 (The Scripps Research Institute Molecular Screening Center, 2011).

Amino acid sequences for entries named in this document (tags omitted). A change or cut given only in a name is not applied to a line headed by its entry.
UniProt Q15788: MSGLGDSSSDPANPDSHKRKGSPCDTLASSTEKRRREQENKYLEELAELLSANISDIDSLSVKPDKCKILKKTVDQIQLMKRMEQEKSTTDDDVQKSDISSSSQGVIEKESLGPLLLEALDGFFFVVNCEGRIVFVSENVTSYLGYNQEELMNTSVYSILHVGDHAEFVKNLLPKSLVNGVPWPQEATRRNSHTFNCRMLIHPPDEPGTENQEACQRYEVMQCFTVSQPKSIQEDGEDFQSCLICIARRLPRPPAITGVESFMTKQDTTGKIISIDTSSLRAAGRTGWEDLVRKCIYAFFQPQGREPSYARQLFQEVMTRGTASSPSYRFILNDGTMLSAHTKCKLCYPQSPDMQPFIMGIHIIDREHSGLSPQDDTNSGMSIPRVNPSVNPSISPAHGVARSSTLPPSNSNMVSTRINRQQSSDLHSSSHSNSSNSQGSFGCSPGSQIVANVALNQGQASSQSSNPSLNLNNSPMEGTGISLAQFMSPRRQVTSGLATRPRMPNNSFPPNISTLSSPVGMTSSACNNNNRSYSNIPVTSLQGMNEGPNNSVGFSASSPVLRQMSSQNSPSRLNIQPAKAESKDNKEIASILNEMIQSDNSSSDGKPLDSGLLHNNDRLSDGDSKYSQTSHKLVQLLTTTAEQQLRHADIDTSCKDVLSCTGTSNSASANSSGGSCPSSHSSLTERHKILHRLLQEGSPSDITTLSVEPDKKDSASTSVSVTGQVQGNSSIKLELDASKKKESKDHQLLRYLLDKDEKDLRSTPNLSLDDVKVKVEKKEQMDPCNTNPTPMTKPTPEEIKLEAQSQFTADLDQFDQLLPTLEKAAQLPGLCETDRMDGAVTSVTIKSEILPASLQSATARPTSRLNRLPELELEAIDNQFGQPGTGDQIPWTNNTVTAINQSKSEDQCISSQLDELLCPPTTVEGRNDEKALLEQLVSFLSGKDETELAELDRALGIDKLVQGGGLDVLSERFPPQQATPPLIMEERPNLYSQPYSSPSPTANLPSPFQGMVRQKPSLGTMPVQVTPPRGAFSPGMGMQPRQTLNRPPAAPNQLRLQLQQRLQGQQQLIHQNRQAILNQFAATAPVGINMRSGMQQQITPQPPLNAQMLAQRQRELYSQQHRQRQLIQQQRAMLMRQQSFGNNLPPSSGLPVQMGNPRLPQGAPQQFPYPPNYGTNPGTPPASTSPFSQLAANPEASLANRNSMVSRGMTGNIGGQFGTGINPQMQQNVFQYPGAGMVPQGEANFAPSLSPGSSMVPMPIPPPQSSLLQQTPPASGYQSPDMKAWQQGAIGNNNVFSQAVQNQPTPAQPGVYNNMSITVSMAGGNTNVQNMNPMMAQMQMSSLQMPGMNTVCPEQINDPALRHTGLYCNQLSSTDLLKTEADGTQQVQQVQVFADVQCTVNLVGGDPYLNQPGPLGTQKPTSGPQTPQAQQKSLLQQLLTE

The list shows a part of the results, in another mix than the full data. Calls of active or inactive are those of the source.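 The calls were made as follows: active = inhibition above the campaign mean plus 3 SD, with each screening campaign given its own cutoff (cut at about 60% in these data); inactive = the rest.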

This test concerns the target Nuclear receptor coactivator 1 (Homo sapiens) (UniProt Q15788). As to the kind of experiment: NCOA1 GAL4-fusion reporter inhibition – cell-based, luminescence, primary screen (AID 588354).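 Also: 0% = DMSO treated cells and 100% = gossypol at 36 µM.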 The following applies: HEK293 GAL4-SRC1 luciferase reporter, at 3.6 µM, active compounds read high. On the technique in general: Reporter assays use an easily measured gene product as a stand-in for the process of interest.
By inhibition is commonly meant the change of the read-out against control, counted positive when it falls. Turning to `CCC(C)N(CC(C)C)C(=S)SC(NC(C)=O)C(Cl)(Cl)Cl` (stereo unspecified), the inhibition was inactive: 0.04%. In the case of `CCOC(=O)c1ccc(NC(=O)C(C)(CCl)SC)cc1` (stereo unspecified), the inhibition is inactive: -56.4%. Regarding `CSc1ccc(Nc2c([N+](=O)[O-])cc([N+](=O)[O-])cc2[N+](=O)[O-])cc1`, the inhibition was inactive: -31.5%.

Regarding `O=C(OC1CN2CCC1CC2)c1cccc([N+](=O)[O-])c1` (stereo unspecified), the inhibition was inactive: -6.44%. For `O=C(Nc1ccncc1[N+](=O)[O-])c1ccc([N+](=O)[O-])cc1[N+](=O)[O-]`, the inhibition was inactive: 10.8%.

Turning to `O=C(COc1ccccc1)OC1CN2CCC1CC2` (stereo unspecified), the inhibition was inactive: -7.63%. On to `O=C(O)C(=O)c1ccc(N(CCCl)CCCl)cc1`, for which the inhibition is inactive: -6.47%. Consider `COC(=O)C1(C)COP(=O)(N2CCCC2)OC1` (stereo unspecified), for which the inhibition was inactive: -6.15%. The value for `COP1(=S)c2c(C)nn(CCC#N)c2N=C(c2ccc(F)cc2)N1C` (stereo unspecified) was inactive: -0.78%; that for `O=[N+]([O-])c1ccc(Nc2ccc(Oc3ccc([N+](=O)[O-])cc3[N+](=O)[O-])cc2)c([N+](=O)[O-])c1` was inactive: -11.5%; that for `O=P(Nc1ccccn1)(c1cccc2ccccc12)c1cccc2ccccc12` was inactive: -8.54%. `Cc1cc(SC(NC=O)C(Cl)(Cl)Cl)ncn1` (stereo unspecified): the inhibition is inactive: -1.33%. As for `CCOC(=O)Nc1cccc([As](=O)(O)O)c1`, the inhibition is inactive: -8.5%. Consider `Cc1cc(SC(NC(=O)c2ccccc2)C(Cl)(Cl)Cl)nc(C(C)C)n1` (stereo unspecified), for which the inhibition was inactive: -88.2%. In the case of `CCCCOc1ccc(C(=O)NCC2(N3CCCCC3)CCCCC2)cc1OC`, the inhibition was inactive: 5.01%.

For `COP(=O)(OC)N1CC1c1ccccc1` (stereo unspecified), the inhibition is inactive: -7.24%. As to `CC1CCNP(=O)(N(CCCl)CCCl)O1` (stereo unspecified), the inhibition is inactive: 0.34%. As for `CCOC(=O)Nc1ccc([As](=O)(O)O)c(O)c1`, the inhibition was inactive: -11.8%. For the compound `O=C(O)C(O)c1ccc(N(CCCl)CCCl)cc1` (stereo unspecified), the inhibition is inactive: -14.7%.

Consider `O=[N+]([O-])c1cc([N+](=O)[O-])c(-c2ccn[nH]2)s1`, for which the inhibition is inactive: -5.87%.

For the compound `O=C(OC1CN2CCC1CC2)c1cccc2[nH]cnc12` (stereo unspecified), the inhibition is inactive: 0.34%. Consider `CCN(CC)C(=S)SC(NC=O)C(Cl)(Cl)Cl` (stereo unspecified), for which the inhibition is inactive: -16.9%. As to `CC(C)NC(=O)NP(=O)(Oc1ccccc1)Oc1ccccc1`, the inhibition is inactive: -30.2%.

`CC(C)c1ccc(OP(=O)(Nc2ccccn2)Oc2ccccc2F)cc1` (stereo unspecified): the inhibition was inactive: 26.6%. As to `COC(=O)C1(C)COP(=O)(N2CCCCCC2)OC1` (stereo unspecified), the inhibition was inactive: -4.5%. On to `ClCCSc1nnc(-c2cccnc2)o1`, for which the inhibition is inactive: -25.6%. `Cc1ccc2nc3c(c(C)c2c1)CC(C(Cl)Cl)S3` (stereo unspecified): the inhibition was inactive: -46.9%. The value for `Cc1ccc(OP(=O)(Nc2ccc([N+](=O)[O-])cn2)Oc2ccc(C)cc2)cc1` was inactive: -37.9%; that for `COc1cc(C(=O)NCC2(N3CCOCC3)CCCCC2)ccc1OCC(C)C` was inactive: 4.22%; that for `O=[N+]([O-])c1ccc(-c2cc([N+](=O)[O-])c(O)c([N+](=O)[O-])c2)cc1` was inactive: -6.37%.

Take `C[As](=O)(O)c1cccc(C(=O)O)c1`: the inhibition is inactive: -24.5%. The value for `O=[As](O)(c1ccc(O)cc1)c1ccccc1O` was inactive: -9.45%; that for `COc1ccc(N/C(=N/P(=O)(N2CCOCC2)N2CCOCC2)N2CCOCC2)cc1` was inactive: 7.3%. Regarding `O=[N+]([O-])c1cc(Oc2ccc([N+](=O)[O-])cc2C(F)(F)F)cc([N+](=O)[O-])c1`, the inhibition was inactive: 8.92%. `COc1cc(I)ccc1[As](=O)(O)O`: the inhibition is inactive: 7.05%.

As to `COc1ccc2nc(NP(=O)(c3ccccc3)c3ccccc3)sc2c1`, the inhibition is inactive: -7.28%. As for `O=P1(N(CCCl)CCCl)Nc2ccccc2N1`, the inhibition was inactive: -117%.

`O=P1(N(CCCl)CCCl)OCCCN1CCCl` (stereo unspecified): the inhibition was inactive: -4.39%. In the case of `Cc1cc(=O)[nH]c(N[N+](=O)[O-])n1`, the inhibition was inactive: 10.3%. Turning to `O=C(OC1CN2CCC1CC2)C12CC3CC(CC(C3)C1)C2` (stereo unspecified), the inhibition is inactive: 2.78%.

Regarding `Cc1c2c(nc3ccccc13)SC(C(Cl)Cl)C2` (stereo unspecified), the inhibition was inactive: 11.7%. The value for `CCOP(=O)(Nc1cccc2ccccc12)OCC` was inactive: 4.61%; that for `COc1cc(C2NCCC3(OCCO3)C2(C)C)cc(OC)c1OC` (stereo unspecified) was inactive: 9.2%; that for `CCCOP(=S)(Nc1nc(N)cc(=O)[nH]1)OCCC` was inactive: -21.2%.

As for `Nc1cccc2c([As](=O)(O)O)cccc12`, the inhibition is inactive: -2.57%. The value for `Cc1ccc(NCCc2c([N+](=O)[O-])cc([N+](=O)[O-])cc2[N+](=O)[O-])cc1` was inactive: -14.6%; that for `O=[As](O)(c1cccc(O)c1)c1cccc(O)c1` was inactive: -19.2%; that for `Cc1cccc(OCC(=O)OC2CN3CCC2CC3)c1` (stereo unspecified) was inactive: -3.39%.

Consider `CS(=O)(=O)c1ccc(Cl)c(NC(=O)COC(=O)C(O)(c2ccccc2)c2ccccc2)c1`, for which the inhibition is inactive: -8.41%. With `COc1cc(C(=O)NCC2(N3CCOCC3)CCCCC2)cc(Cl)c1OC(C)C`, the inhibition was inactive: 0.35%. As for `O=[As](O)(O)c1cccnc1`, the inhibition is inactive: -9.27%. Regarding `O=C(OC1CN2CCC1CC2)c1ccc(Cl)cc1` (stereo unspecified), the inhibition was inactive: 11.9%. As to `CN(C(=O)Cc1ccc(Cl)c(Cl)c1)[C@H]1CC[C@@]2(CCCO2)C[C@@H]1N1CCCC1`, the inhibition is inactive: -19.7%. Take `CN(C)C(=O)c1cc([N+](=O)[O-])cc2c1-c1c(cc([N+](=O)[O-])cc1[N+](=O)[O-])C2=O`: the inhibition was inactive: -4.39%. Consider `O=[N+]([O-])c1ccc2c(c1)nnn2O`, for which the inhibition was inactive: -8.06%. `CN(C(=O)Cc1ccccc1)[C@@H]1CC[C@]2(CCCO2)C[C@H]1N1CCCC1`: the inhibition is inactive: -5.63%. Take `CCOP1(=S)c2c(C)nn(CCC#N)c2N=C(c2ccc(F)cc2)N1C` (stereo unspecified): the inhibition was inactive: -15.2%. Turning to `N#CCCN(C(=O)COC(=O)C(O)(c1ccccc1)c1ccccc1)c1ccc(F)cc1`, the inhibition was inactive: 8.12%. The value for `NC(=O)Nc1ccc([As](=O)(O)O)cc1` was inactive: -8.14%; that for `Nc1ccccc1[As](=O)(O)c1ccccc1` was inactive: 10.9%.

As for `O=C(O)COc1ccc([As](=O)(O)O)cc1[N+](=O)[O-]`, the inhibition was inactive: 23%. For the compound `CS(=O)(=O)c1cc([N+](=O)[O-])c2no[n+]([O-])c2c1`, the inhibition is inactive: -8.22%. Take `O=P(Nc1nccs1)(c1ccccc1)c1nc2ccccc2s1` (stereo unspecified): the inhibition was inactive: -22.2%. Consider `O=P(Nc1nccs1)(Oc1ccccc1)Oc1ccccc1`, for which the inhibition was inactive: -11.5%. As to `CCOP1(=S)c2c(C)nn(CCC#N)c2N=C(c2ccccc2F)N1C` (stereo unspecified), the inhibition is inactive: 16.3%. For `O=P1(Nc2ccc(Br)cn2)COc2ccccc2OC1`, the inhibition was inactive: -0.75%. The figure for `NS(=O)(=O)c1cccc(NC(=O)COC(=O)C(O)(c2ccccc2)c2ccccc2)c1` is inactive: -8.38%; for `O=[As](O)(c1cccs1)c1cccs1` it is inactive: 3.33%.

Take `Cc1ccc(OCC(=O)OC2CN3CCC2CC3)cc1` (stereo unspecified): the inhibition is inactive: -20.2%. As for `Nc1cccc([As](=O)(O)c2ccccc2)c1`, the inhibition was inactive: 1.78%.

Consider `O=P1(Nc2ncccn2)COc2ccccc2OC1`, for which the inhibition was inactive: 8.76%. In the case of `Cc1ccc(S(=O)(=O)N(CCCN)CCCc2c(C)nc(N)[nH]c2=O)cc1`, the inhibition was inactive: -5.89%. Take `CCCC1OP(=O)(Nc2ccccc2)OCC1CC` (stereo unspecified): the inhibition is inactive: 3.97%. For the compound `O=C(/C=C/c1ccccc1)OC1CN2CCC1CC2` (stereo unspecified), the inhibition is inactive: 5.8%.

As to `CN(C)C1(CNC(=O)c2ccc(S(C)(=O)=O)cc2)CCCCC1`, the inhibition was inactive: 4.36%. The value for `CC1CCC(C(C)C)C(OP(=O)(Nc2ccccn2)c2ccccc2)C1` (stereo unspecified) was inactive: 24.2%; that for `Cc1ccc(C(=O)OC2CN3CCC2CC3)cc1` (stereo unspecified) was inactive: -9.39%.

With `Cc1nn(-c2ccccc2)c2c1P(=O)(N1CCOCC1)N(C)C(c1ccccc1)=N2` (stereo unspecified), the inhibition was inactive: 11.9%. For `CC1(CBr)Cn2c(nc3ccccc3c2=O)S1` (stereo unspecified), the inhibition is inactive: -15.5%. The value for `CC(C)/C=N\N=C(\N)N[N+](=O)[O-]` was inactive: -1.61%; that for `CN(C(=O)Cc1ccc(Cl)c(Cl)c1)[C@@H]1CCCC[C@H]1N1CCCC1` was inactive: -7.31%.

Regarding `COc1ccccc1CNC(=O)COC(=O)C(O)(c1ccccc1)c1ccccc1`, the inhibition was inactive: -5.84%. `CC(C)(C)C(=O)NC(Sc1ncccn1)C(Cl)(Cl)Cl` (stereo unspecified): the inhibition was inactive: -1.39%. Regarding `O=P1(N(CCCl)CCCl)NCCC(C(F)(F)F)O1` (stereo unspecified), the inhibition was inactive: -5.14%. With `Clc1n[nH]nc1-c1nn[nH][15n]1`, the inhibition was inactive: -5.89%. For `CN(CCCl)Cc1cc(Cl)c(NC2=NCCN2)c(Cl)c1`, the inhibition is inactive: -0.95%.

As to `CCOP(=O)(Nc1ccc(C)cn1)OCC`, the inhibition was inactive: 12%.

`CCOP(=O)(NC(=NC(C)c1ccccc1)NC(C)c1ccccc1)OCC` (stereo unspecified): the inhibition is inactive: 3.39%. As to `O=P1(Nc2ccccn2)COc2ccccc2OC1`, the inhibition is inactive: -10.2%. On to `CCC1=CC2Cc3nc4ccc(Cl)cc4c(N)c3C(C1)C2` (stereo unspecified), for which the inhibition is inactive: -1.6%. Regarding `c1nnnn1CCn1cnnn1`, the inhibition was inactive: -3.98%. The figure for `CC(C)C(=O)NC(Sc1ccccc1)C(Cl)(Cl)Cl` (stereo unspecified) is inactive: -2.32%.

For `O=P(Nc1nccs1)(c1ccccc1)c1ccccc1`, the inhibition is inactive: 9.04%.

For `Nc1ccc([As](=O)(O)c2ccc([N+](=O)[O-])cc2)cc1`, the inhibition was inactive: -10.4%. For the compound `C(Cc1nn[nH]n1)Cc1nn[nH]n1`, the inhibition was inactive: -29.1%. As for `O=C(OC1CN2CCC1CC2)c1cccc(Cl)c1` (stereo unspecified), the inhibition was inactive: 2.61%. As to `O=[N+]([O-])c1ccc(O)c(/C=N/Nc2ccc([N+](=O)[O-])cc2[N+](=O)[O-])c1`, the inhibition is inactive: -12.7%. `O=[N+]([O-])c1ncn(CCn2cnc([N+](=O)[O-])n2)n1`: the inhibition was inactive: -24.2%.

Turning to `CC(=O)NC(SC(=S)N(C)C)C(Cl)(Cl)Cl` (stereo unspecified), the inhibition was inactive: -10.5%. For the compound `O=[As](O)(c1ccccc1)c1ccc(O)cc1`, the inhibition was inactive: -3.04%.

For `C[C@H]1OP(=O)(Oc2ccccc2)[C@H](O)[C@H](O)[C@H]1N=[N+]=[N-]` (stereo partly specified), the inhibition is inactive: -2.07%.
